Experimental data reported in patent US11273168B2, “Methods of treating anxiety by administering a substituted quinolone” (OTSUKA PHARMACEUTICAL CO., LTD., priority 2010, dated 2022).

Sequences of proteins named here, by UniProt entry; tags and fusion partners are left off. Residues count along the entry.
UniProt P31652, whole entry: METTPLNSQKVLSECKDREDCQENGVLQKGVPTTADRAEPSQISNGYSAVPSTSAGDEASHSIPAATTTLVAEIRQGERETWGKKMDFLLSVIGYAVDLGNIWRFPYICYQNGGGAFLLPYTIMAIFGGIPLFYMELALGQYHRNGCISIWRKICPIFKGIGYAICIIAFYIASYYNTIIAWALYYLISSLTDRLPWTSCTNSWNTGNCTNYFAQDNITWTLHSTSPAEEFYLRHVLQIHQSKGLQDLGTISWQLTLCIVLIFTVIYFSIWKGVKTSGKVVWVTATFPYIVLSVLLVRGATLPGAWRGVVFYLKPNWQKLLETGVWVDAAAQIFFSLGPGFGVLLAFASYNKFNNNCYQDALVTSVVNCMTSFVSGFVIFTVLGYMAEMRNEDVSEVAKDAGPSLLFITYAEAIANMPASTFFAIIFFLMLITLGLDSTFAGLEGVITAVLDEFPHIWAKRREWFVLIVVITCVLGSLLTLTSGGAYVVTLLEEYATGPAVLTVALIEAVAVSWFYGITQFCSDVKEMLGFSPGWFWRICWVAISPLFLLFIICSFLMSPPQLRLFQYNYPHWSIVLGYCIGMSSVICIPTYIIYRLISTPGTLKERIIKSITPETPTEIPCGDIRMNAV
UniProt Q9WTR4, 1-597: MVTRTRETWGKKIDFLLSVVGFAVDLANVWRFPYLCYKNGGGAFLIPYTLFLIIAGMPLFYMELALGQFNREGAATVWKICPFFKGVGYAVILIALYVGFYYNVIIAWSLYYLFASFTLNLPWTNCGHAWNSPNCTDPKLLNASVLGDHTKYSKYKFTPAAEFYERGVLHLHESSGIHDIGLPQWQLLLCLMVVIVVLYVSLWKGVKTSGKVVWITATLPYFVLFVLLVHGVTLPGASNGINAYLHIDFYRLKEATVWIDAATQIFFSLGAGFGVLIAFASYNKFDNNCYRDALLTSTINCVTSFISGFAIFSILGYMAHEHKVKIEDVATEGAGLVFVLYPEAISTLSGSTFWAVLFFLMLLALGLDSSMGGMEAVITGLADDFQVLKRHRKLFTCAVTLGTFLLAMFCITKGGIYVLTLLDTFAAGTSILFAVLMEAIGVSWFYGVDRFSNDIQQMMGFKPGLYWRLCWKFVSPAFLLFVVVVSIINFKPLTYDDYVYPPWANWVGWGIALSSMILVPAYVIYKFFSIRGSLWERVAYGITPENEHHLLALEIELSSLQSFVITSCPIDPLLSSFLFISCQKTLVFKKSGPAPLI
UniProt P23977, whole entry: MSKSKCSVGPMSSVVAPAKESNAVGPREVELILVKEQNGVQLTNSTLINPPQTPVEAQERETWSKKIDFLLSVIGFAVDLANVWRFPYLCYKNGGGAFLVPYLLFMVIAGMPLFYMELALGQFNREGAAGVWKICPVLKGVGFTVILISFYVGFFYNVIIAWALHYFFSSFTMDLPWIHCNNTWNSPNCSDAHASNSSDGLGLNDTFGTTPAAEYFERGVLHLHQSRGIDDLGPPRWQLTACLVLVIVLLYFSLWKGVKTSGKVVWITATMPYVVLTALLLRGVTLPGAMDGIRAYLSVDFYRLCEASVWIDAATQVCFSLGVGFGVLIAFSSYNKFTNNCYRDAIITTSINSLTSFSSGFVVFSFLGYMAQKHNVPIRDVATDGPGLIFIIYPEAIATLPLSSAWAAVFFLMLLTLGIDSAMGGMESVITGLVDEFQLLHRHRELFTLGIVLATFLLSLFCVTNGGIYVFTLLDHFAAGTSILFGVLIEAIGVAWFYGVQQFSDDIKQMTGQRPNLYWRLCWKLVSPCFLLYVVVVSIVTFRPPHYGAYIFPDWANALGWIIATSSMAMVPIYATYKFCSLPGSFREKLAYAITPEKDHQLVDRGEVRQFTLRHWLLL

Legend:
Type in all cases: biochemical
[1] = biological target: Serotonin (5-HT) uptake (Rattus norvegicus, UniProt P31652); assay: Serotonin (5-HT) uptake inhibitory activity using rat brain synaptosome (frontal cortex); conditions: read-out: 50% Inhibitory concentration, tritium-labeled 5-HT 8 nM, 37° C. 10 minutes
[2] = biological target: Norepinephrine (NE) uptake (Rattus norvegicus, UniProt Q9WTR4); assay: Norepinephrine (NE) uptake inhibitory activity using rat brain synaptosome (hippocampus); conditions: read-out: 50% inhibitory concentration, tritium-labeled NE 12 nM, 37° C. ten minutes
[3] = biological target: Dopamine (DA) uptake (Rattus norvegicus, UniProt P23977); assay: Dopamine (DA) uptake inhibitory activity using rat brain synaptosome (corpus striatum); conditions: read-out: 50% Inhibitory concentration, tritium-labeled DA 2 nM, 37° C. ten minutes

IC50 [1]: 4.9 nM | IC50 [2]: 3.1 nM | IC50 [3]: 9.7 nM
Structure (SMILES): CC1(C)CN(c2ccc3cc(O)ccc3c2)[C@@H]2CCCC[C@@H]2N1
